The values below are quoted from earlier work in US5238927A (priority 1992, dated 1993).

In this data set the test system is carboxy, choline and other esterases. The conditions noted are these: compared within the H-series.

Turning to `NC(=O)c1cc[n+](COC[n+]2ccccc2C=NO)cc1` [HI-6, 1-(2-hydroxyiminomethylpyridinium)-2-(4-carboxyamidopyridinium)-dimethyl ether dichloride], the “effectiveness in the reactivation of esterases inhibited by organophosphorus nerve toxins” value is recorded as “most effective compound of the H-series”.
